Assay results published in patent publication EP3409671B1, “ISOTHIAZOLE DERIVATIVES AS GPR120 AGONISTS FOR THE TREATMENT OF TYPE II DIABETES” (Janssen Pharmaceutica NV, priority 2014, dated 2015).

Legend:
C57b1/6J Mice = assay: GPR120 C57bl6 Mouse IPGTT; set-up: unit not given here; settings: 10mg/kg dosed 30 minutes prior to glucose IP 1.5g/kg
Method: (§1) Male, C57b1/6J Mice were ordered in at 8 weeks of age from Jackson Labs. Individual mice weighed anywhere in the range of 25-30 grams on study day. The mice were fasted, with removal of food occurring at 7am on the morning of the study. Animals were moved into the room at 10:00am, to give them time to acclimate. Glucose (insulin syringes) was drawn up either the night before or the morning of the study. Glucose was dosed (IP) at 1.5g/kg at 7.5ml/kg (20% glucose straight TEKNOVA, 250ml sterile bottle w/ catalogue number G0525). Test compounds were kept spinning and were only drawn into the syringes prior to study commencement. Animals were bled via tail snip to determine basal glucose levels prior to dosing of treatments. An Ascensia BREEZE Blood Glucose Monitoring System by Bayer (using unique 10-test disks) was used for determining glucose levels. The bleeds started at approximately 12:45pm and dosing started, at 1-minute intervals, immediately after. All groups were dosed 30 minutes prior to glucose administration at a dose volume of 10ml/kg (the dose volume was calculated separately for each individual animal). Thirty minutes after the first dose animals were bled again for a second baseline, or T=0, and immediately dosed with glucose via an i.p. injection. The exact dose volume for glucose was also calculated separately for each individual animal. […]

C57bl6 mouse = C57bl6 mouse OGTT; settings: 3mg/kg dosed 30 minutes prior to glucose PO 3g/kg
Method: as §1

For `OCCCc1cc(F)c(OCc2c(Cl)nsc2-c2ccc(Cl)cc2)c(F)c1`, the “C57 IPGTT 10mg/kg” value (C57b1/6J Mice) was -41 and the “C57 OGTT 3mg/kg” value (C57bl6 mouse) was -39.
